What was measured:
Test in all cases: apparent dissociation constant pKd app (kinobead competition) (-log10(M)); higher = stronger binding
PRKD1 = biological target: T1, PRKD1 (UniProt Q15139)
T1 sequence (whole entry): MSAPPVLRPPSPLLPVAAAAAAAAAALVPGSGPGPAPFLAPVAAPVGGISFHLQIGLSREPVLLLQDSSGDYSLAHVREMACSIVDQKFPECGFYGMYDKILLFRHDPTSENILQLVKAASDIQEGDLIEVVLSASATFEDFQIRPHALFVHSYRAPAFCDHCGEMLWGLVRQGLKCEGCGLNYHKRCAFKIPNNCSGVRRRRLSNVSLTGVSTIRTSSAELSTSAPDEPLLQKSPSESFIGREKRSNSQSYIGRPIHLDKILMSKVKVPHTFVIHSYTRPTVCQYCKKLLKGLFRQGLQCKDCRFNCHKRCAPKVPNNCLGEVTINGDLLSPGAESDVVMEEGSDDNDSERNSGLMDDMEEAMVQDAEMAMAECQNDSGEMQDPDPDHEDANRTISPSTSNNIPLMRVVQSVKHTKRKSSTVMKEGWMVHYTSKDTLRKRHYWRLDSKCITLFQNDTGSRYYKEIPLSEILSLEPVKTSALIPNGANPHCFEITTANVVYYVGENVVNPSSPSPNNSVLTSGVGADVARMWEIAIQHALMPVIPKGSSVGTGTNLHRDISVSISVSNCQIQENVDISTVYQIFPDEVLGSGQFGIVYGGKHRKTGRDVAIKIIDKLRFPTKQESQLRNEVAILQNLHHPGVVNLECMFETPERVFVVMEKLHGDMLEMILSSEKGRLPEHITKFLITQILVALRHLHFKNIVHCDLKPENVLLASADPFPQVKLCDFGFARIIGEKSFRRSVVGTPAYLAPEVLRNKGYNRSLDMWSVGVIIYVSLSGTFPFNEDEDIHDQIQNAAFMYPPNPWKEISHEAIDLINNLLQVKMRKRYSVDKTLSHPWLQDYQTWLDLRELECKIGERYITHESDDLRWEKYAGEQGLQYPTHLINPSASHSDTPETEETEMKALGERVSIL

Chains of the proteins cited; added tags and fusions are not shown. Lines headed by an entry give the natural chain unless they say otherwise; changes in a name come on top.
UniProt Q13233: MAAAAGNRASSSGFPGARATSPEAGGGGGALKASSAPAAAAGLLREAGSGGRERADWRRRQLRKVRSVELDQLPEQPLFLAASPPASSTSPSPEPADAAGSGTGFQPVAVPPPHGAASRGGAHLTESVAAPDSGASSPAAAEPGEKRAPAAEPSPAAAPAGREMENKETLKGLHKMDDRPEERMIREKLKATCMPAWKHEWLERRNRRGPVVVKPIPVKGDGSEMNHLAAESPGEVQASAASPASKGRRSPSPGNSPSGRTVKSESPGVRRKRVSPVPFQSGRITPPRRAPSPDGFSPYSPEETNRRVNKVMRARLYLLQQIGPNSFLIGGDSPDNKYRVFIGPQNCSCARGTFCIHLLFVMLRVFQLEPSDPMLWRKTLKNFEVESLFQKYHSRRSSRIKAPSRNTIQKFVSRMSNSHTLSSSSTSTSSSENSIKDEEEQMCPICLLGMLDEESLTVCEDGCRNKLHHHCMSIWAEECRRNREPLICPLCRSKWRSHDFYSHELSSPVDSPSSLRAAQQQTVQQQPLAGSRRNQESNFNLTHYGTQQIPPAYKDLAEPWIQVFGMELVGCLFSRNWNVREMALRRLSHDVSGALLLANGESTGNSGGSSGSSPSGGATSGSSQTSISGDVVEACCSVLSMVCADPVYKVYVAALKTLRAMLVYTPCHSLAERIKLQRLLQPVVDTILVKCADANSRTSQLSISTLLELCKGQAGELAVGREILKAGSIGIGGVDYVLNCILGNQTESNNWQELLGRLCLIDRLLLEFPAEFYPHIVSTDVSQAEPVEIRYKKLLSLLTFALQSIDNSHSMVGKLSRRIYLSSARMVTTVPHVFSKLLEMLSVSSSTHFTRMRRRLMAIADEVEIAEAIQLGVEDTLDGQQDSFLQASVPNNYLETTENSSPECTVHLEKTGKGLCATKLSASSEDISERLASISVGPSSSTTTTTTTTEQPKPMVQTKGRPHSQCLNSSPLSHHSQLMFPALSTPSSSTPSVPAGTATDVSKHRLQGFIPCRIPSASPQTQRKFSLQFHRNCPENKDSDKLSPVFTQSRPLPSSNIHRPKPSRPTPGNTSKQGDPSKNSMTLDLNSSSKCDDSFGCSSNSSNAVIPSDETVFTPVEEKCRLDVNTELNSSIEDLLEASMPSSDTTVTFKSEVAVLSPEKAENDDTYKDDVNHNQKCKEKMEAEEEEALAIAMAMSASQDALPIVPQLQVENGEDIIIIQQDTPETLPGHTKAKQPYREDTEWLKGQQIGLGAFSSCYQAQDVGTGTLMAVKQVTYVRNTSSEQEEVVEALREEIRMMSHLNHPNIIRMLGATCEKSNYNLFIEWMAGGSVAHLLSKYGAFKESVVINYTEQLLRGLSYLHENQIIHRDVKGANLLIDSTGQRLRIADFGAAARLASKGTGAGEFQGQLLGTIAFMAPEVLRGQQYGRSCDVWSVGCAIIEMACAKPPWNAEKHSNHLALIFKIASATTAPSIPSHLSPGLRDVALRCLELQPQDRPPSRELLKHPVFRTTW
UniProt P53355: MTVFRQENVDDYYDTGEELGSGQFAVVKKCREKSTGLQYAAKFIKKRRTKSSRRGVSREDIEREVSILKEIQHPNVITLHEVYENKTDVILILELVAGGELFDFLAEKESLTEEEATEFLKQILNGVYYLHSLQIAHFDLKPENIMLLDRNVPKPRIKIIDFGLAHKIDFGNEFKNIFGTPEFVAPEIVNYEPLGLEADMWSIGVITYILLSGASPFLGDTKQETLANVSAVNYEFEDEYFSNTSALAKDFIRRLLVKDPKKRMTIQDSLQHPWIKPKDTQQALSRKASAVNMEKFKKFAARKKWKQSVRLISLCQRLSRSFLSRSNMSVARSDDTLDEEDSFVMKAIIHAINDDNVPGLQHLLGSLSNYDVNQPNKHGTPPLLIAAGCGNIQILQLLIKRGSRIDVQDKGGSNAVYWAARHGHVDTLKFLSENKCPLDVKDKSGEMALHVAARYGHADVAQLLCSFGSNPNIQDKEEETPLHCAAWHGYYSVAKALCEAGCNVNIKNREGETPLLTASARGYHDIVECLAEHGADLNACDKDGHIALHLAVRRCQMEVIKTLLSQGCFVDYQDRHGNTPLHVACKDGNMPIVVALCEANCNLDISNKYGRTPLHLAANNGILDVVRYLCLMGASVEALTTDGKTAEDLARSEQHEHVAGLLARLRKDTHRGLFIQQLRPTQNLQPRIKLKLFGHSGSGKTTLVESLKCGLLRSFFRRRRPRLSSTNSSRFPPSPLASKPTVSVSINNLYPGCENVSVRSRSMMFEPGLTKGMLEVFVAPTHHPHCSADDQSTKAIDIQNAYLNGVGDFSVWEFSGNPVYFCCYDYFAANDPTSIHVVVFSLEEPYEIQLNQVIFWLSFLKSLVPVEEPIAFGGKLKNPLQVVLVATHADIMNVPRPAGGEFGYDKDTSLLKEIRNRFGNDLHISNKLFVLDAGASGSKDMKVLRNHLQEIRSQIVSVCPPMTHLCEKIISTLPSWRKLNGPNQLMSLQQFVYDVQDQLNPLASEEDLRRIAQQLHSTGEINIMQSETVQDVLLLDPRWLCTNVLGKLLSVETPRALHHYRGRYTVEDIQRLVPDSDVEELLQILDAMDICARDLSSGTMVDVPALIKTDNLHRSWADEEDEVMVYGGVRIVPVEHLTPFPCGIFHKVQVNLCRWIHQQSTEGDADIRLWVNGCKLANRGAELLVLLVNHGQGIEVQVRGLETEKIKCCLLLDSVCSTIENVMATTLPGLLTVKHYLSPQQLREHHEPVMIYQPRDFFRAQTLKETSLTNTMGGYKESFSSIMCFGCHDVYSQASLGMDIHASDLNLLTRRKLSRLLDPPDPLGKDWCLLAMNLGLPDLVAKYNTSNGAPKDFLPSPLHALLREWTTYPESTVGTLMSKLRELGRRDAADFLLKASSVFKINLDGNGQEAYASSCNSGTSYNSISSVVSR
UniProt O75460: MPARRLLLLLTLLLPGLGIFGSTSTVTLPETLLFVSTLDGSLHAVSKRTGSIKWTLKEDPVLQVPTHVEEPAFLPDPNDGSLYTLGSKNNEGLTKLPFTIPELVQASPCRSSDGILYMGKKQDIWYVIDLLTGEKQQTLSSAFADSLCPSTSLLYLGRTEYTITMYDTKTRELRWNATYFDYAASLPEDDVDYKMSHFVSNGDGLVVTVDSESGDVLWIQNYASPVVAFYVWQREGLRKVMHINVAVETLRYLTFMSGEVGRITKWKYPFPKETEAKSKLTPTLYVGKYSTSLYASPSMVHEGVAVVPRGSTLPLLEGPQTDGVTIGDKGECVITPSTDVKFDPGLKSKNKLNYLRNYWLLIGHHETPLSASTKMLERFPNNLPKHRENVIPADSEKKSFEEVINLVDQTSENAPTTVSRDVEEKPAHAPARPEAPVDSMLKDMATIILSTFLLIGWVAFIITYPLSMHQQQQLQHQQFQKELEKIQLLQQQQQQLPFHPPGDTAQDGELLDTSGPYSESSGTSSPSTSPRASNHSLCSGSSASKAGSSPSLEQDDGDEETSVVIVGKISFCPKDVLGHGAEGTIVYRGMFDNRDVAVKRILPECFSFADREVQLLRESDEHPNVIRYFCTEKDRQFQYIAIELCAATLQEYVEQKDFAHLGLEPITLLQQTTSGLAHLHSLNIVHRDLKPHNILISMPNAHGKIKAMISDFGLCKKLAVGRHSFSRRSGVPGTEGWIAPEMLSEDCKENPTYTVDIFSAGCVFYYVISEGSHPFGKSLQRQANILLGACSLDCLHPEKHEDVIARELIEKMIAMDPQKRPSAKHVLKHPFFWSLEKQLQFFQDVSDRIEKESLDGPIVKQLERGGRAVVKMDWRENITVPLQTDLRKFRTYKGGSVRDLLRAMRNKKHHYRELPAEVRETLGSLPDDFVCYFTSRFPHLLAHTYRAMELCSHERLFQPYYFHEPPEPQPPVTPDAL
UniProt Q9UHD2: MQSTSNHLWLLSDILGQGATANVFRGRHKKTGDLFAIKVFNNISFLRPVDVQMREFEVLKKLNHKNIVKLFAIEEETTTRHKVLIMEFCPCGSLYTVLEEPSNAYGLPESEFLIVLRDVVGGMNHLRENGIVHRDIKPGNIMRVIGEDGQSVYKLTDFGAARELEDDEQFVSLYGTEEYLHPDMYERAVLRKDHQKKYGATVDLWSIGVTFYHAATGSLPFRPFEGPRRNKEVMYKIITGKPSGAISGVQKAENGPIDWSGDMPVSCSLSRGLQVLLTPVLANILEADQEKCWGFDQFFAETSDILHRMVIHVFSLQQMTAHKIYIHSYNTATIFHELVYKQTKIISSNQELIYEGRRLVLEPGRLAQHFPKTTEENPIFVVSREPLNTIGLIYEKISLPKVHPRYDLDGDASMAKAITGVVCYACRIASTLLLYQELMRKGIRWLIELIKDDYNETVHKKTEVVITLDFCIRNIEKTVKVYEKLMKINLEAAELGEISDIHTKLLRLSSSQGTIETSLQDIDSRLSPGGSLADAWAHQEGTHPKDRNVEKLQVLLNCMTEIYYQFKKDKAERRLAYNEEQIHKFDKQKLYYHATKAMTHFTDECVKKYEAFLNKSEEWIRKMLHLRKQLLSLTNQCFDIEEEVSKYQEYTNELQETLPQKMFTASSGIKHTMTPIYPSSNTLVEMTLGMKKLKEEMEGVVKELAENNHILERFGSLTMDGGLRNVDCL
UniProt Q13464: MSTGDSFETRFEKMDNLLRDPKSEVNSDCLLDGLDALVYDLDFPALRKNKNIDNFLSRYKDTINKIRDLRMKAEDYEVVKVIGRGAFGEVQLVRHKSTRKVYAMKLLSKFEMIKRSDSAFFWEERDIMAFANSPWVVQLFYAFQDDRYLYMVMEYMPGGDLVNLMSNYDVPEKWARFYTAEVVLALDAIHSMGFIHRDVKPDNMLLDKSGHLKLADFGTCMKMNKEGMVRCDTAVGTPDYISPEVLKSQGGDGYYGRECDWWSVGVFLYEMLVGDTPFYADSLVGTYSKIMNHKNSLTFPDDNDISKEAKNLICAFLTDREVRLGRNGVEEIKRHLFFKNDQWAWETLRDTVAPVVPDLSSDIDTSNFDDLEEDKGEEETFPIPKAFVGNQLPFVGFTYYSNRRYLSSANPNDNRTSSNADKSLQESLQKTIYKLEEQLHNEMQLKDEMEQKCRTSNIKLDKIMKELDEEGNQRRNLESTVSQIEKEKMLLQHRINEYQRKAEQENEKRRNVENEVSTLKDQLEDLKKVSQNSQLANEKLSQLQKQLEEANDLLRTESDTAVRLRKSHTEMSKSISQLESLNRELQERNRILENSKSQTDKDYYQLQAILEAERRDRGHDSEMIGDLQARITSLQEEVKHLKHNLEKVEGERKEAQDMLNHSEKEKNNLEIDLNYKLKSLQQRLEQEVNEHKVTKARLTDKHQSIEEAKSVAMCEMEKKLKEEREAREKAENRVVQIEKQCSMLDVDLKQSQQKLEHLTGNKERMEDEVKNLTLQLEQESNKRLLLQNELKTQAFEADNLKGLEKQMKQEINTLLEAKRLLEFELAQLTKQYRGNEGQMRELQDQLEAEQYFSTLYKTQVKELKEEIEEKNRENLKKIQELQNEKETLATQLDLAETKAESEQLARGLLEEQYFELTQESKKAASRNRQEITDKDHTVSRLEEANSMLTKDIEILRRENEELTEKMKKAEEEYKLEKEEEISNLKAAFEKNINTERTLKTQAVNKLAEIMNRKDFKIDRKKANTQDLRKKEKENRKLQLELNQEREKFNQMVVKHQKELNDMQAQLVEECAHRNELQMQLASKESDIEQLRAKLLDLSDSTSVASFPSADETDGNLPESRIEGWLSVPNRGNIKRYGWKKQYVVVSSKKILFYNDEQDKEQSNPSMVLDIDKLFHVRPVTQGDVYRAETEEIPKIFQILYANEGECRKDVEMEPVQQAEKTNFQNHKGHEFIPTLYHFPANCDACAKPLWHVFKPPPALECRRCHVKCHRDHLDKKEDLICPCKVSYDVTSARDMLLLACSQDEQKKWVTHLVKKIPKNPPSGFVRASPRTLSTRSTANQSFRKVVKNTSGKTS

MAP3K1 = MAP3K1 (UniProt Q13233)
MYLK = MYLK (UniProt Q15746)
DAPK1 = DAPK1 (UniProt P53355)
ERN1 = ERN1 (UniProt O75460)
PRKD3 = biological target: T2, PRKD3 (UniProt O94806)
T2 sequence (whole entry): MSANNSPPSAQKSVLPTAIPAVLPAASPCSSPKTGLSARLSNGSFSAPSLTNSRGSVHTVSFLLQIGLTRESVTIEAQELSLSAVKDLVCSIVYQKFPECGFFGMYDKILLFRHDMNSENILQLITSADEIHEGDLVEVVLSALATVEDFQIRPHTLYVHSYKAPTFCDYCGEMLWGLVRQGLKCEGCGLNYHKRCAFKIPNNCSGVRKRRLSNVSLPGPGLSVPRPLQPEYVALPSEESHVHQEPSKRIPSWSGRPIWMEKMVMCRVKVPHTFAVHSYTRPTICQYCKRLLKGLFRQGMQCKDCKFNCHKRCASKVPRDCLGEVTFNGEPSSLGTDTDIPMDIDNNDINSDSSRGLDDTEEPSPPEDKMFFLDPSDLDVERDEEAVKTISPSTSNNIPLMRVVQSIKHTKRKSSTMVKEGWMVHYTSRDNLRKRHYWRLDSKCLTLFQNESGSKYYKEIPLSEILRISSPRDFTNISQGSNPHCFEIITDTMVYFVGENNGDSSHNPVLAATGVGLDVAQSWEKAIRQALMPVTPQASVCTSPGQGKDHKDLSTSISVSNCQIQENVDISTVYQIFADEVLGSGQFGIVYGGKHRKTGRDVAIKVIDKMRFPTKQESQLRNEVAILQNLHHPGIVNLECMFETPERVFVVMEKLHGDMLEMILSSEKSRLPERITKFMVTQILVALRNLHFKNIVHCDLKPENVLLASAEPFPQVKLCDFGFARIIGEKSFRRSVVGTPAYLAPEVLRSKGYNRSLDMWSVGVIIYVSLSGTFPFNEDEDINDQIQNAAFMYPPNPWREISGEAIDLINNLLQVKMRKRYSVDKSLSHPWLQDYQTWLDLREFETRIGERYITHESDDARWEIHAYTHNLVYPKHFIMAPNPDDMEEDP

TBK1 = TBK1 (UniProt Q9UHD2)
MAP3K7 = biological target: T3, MAP3K7 (UniProt O43318)
T3 sequence (whole entry): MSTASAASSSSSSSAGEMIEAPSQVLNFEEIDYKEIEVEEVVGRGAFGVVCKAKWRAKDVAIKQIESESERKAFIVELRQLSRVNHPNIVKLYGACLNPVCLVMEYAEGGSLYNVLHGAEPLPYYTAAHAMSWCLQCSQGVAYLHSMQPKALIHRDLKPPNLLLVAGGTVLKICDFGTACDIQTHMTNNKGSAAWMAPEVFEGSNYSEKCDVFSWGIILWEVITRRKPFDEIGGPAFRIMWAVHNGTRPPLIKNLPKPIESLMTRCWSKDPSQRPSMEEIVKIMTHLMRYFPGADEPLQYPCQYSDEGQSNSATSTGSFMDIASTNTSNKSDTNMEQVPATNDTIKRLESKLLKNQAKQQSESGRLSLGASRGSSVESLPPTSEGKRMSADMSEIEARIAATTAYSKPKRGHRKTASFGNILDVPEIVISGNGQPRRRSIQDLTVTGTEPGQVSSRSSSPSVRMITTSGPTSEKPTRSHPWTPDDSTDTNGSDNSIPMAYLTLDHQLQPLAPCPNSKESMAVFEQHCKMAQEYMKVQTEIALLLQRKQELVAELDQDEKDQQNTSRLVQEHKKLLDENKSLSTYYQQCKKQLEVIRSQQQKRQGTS

ROCK1 = ROCK1 (UniProt Q13464)

Structure (SMILES) | apparent dissociation constant pKd app (-log10) (PRKD1) | apparent dissociation constant pKd app (-log10) (MAP3K1) | apparent dissociation constant pKd app (-log10) (MYLK) | apparent dissociation constant pKd app (-log10) (DAPK1) | apparent dissociation constant pKd app (-log10) (ERN1) | apparent dissociation constant pKd app (-log10) (PRKD3) | apparent dissociation constant pKd app (-log10) (TBK1) | apparent dissociation constant pKd app (-log10) (MAP3K7) | apparent dissociation constant pKd app (-log10) (ROCK1)
NC(=O)c1cccc2cn(-c3ccc([C@@H]4CCCNC4)cc3)nc12 [Niraparib] | < 4.6 | < 4.7 | < 4.5 | < 4.5 | < 4.5 | < 4.6 | < 4.7 | < 4.5 | < 4.5
Cn1ncnc1[C@H]1c2n[nH]c(=O)c3cc(F)cc(c23)N[C@@H]1c1ccc(F)cc1 [Talazoparib] | < 4.6 | < 4.7 | < 4.5 | < 4.5 | < 4.5 | < 4.6 | < 4.7 | < 4.5 | < 4.5
O=C(c1cc(Cc2n[nH]c(=O)c3ccccc23)ccc1F)N1CCN(C(=O)C2CC2)CC1 [Olaparib] | < 4.6 | < 4.7 | < 4.5 | < 4.5 | < 4.5 | < 4.6 | < 4.7 | < 4.5 | < 4.5

Reference: the supplement of paper PMC11403291
